The target of this assay is Acetylcholinesterase (Homo sapiens, UniProt P22303). Nature of the assay: Inhibition of acetylcholinesterase activity.

Sequences of proteins named here, by UniProt entry; tags and fusion partners are left off. A change or cut given only in a name is not applied to a line headed by its entry.
UniProt P22303: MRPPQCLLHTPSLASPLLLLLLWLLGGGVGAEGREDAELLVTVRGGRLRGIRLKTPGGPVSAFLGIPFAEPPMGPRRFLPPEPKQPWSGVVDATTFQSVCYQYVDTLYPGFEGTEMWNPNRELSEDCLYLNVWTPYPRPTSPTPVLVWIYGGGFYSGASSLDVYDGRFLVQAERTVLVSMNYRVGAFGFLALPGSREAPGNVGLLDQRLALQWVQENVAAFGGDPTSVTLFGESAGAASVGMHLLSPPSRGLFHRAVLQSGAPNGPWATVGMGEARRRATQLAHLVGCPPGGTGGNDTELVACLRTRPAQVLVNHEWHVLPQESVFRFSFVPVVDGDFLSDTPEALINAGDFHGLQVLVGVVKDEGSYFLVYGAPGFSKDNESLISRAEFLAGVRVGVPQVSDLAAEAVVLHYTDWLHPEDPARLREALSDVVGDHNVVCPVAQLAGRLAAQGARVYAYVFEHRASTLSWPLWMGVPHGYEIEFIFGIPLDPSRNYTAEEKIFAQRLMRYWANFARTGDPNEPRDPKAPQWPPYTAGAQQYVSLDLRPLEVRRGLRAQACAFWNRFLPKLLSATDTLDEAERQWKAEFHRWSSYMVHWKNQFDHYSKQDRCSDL

Structures are written as SMILES.

Take `CN1CCC(CC2=Cc3ccccc3C2)CC1`: the IC50 came to 4.4 µM.
